Literature values as cited in publication PMC8780549, “Discovery of Small Molecules as Membrane-Bound Catechol-O-methyltransferase Inhibitors with Interest in Parkinson’s Disease: Pharmacophore Modeling, Molecular Docking and In Vitro Experimental Validation Studies” (Pharmaceuticals, 2021).

Test system: Recombinant SCOMT
Settings: cited from earlier work

**Q.** With O=[N+]([O-])c1cc(O)c(O)c([N+](=O)[O-])c1 as the compound, how does the IC50 read?
**A.** 13.3 nM
